Measurements published in PMC9566605 (Cancer cell, 2022).

Test system: H-2K^b associated peptides of EG.7 cells
Type: cell-based, mouse
Conditions: 2.5 mM PNT on ice 5 min; 30 minutes post-treatment

## O=NOO [PNT, peroxynitrite]
  peptides with greater than 2-fold decrease in yield relative to untreated cells: about 20%
